Laboratory results as given in PubChem BioAssay AID2551 (National Center for Advancing Translational Sciences (NCATS), 2010).
The list shows a part of the results, in another mix than the full data. Inconclusive results are not listed. Calls of active or inactive are those of the source. The call rests on the fitted dose curve; in most records, active means well fitted inhibition curve with a large enough effect; inconclusive means small, poorly fitted or top-dose-only effect, or effect the other way; inactive means no such curve, though single readings can be large or run the other way.
Further: nearly all actives have a fitted effect of over 60% in size.
Potency means the concentration at half of the fitted maximal effect.

Chains of the proteins cited; added tags and fusions are not shown. Lines headed by an entry give the natural chain unless they say otherwise; changes in a name come on top.
UniProt P51450: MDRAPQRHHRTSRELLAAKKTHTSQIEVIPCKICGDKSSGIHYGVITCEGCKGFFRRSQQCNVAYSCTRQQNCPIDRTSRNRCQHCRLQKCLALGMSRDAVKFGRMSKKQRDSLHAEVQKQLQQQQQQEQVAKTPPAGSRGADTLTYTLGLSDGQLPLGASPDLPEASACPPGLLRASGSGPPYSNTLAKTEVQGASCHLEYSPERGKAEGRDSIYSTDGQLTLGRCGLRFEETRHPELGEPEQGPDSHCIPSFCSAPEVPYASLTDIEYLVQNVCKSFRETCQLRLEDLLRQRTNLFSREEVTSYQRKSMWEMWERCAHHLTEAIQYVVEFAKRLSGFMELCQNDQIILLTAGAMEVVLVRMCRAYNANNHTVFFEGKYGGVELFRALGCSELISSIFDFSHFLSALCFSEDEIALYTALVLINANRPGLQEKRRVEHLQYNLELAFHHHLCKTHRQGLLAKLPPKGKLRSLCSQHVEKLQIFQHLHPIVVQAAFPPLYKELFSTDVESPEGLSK

The compounds below were run against Nuclear receptor ROR-gamma (Mus musculus) (UniProt P51450) (assay: qHTS for inhibitors of ROR gamma transcriptional activity). Details: Drosophila S2 Gal4-RORgamma UAS-luciferase reporter, 20 h.
For COc1ccc(Nc2nc(Nc3ccc(OC)cc3)nc(SC3=NCCS3)n2)cc1, the Potency was active: 3.98 µM.
